For two compounds, Ratio IC50 results are on record in ChEMBL document CHEMBL5329224, “Structure-Based Design and Evaluation of Reversible KRAS G13D Inhibitors” (ACS Med Chem Lett, 2024).

A short description of the assay: Selectivity ratio of IC50 for inhibition of Biotinylated KRAS G13D mutant (unknown origin) to IC50 for inhibition of Biotinylated wild type KRAS (unknown origin).

Molecules are shown by their SMILES.

On to `C=C1CN2CCC[C@@]2(COc2nc(N3CCN(C(=O)/C=C/c4cccc5c4CNCC5)C[C@@H]3C)c3cc(Cl)c(-c4nc(N)cc(C)c4C(F)(F)F)c(F)c3n2)C1`, for which the Ratio IC50 is 11.

As for `C=C1CN2CCC[C@@]2(COc2nc3c4c(c(Cl)c(-c5nc(N)cc(C)c5C(F)(F)F)c(F)c4n2)OC[C@@H]2CN(C(=O)/C=C/c4nccc5c4CNCC5)CCN32)C1`, the Ratio IC50 worked out at 6.7.
